Key:
DLD-1 cells = test: Inhibition of proliferation, DLD-1 BRCA2 wt control (Cell Titre Glo 3D); assay type: cell-based
Excerpt: (§1) This assay identifies anti-proliferative effects of POLQ compounds in the homologous recombination deficient colorectal cell line DLD-1 BRCA2−/− over 8-9 population doublings (7 days for DLD-1 and 12 days for DLD-1 BRCA2−/−). DLD1 BRCA2 wt are used as a control to detect cell toxic effects not specific to homologous recombination deficiency.
(§2) DLD-1 BRCA2−/− and DLD-1 cells were kept in continuous culture in Assay Medium (RPMI 1640 phenol red free (Sigma R7509) containing 1% GlutaMAX (Gibco 35050) and 10% Foetal Bovine Serum (Gibco 10270-106)). On the day of the assay cells in culture of ˜80-90% confluent were used. […] Cells were counted using a ViCell and the cell images were monitored for clumps of cells, ideally they should be single or <3 cell clusters. The cells were diluted to 3,000 cells/mL of DLD-1 BRCA2−/− and 1,500 cells/mL of DLD-1 in Assay Medium and 100 μL added per well of transparent bottomed, black, tissue culture-treated 96-well plates (CoStar, No. 3904) Assay Ready Plates. The Assay Ready Plates contain a 10 point 10 μM to 0.51 nM dose range with three-fold dilutions in DMSO with a final volume of 100 nL. […] On day 6, 100 μL/well of Assay Medium was added to duplicate Assay Ready Plates. 90 μL of culture medium was removed from the cell plates and replenished with the Assay Media and compounds from the duplicate Assay Ready Plates using the Bravo. […]

DLD-1 BRCA2−/− cells = test: Homologous recombination synthetic lethal inhibition of proliferation, DLD-1 BRCA2-/- (Cell Titre Glo 3D); assay type: cell-based
Excerpt: as §1, §2

## CC1(Oc2ncnc3c2nc(-c2ccc(OCCN4CCNCC4)cc2Cl)n3Cc2nncs2)CC1
DLD-1 cells
  POLQ PD Prolif Lumin DLD1 mean PIC50: <5.0
DLD-1 BRCA2−/− cells
  POLQ PD Prolif Lumin BRCA2 −/− mean pIC50: <5.0

From patent publication US20250195530A1, “POLQ INHIBITORS” (ASTRAZENECA AB, priority 2022, published 2025)
